Results taken from PubChem BioAssay AID924 (National Center for Advancing Translational Sciences (NCATS), 2007).
This is a selection; strong and weak results do not stand in their true shares. Results filed as inconclusive are left out. Activity calls are given as the source filed them. Calls follow the shape of the dose curve; as a rule, active = well fitted cell-killing curve with a large enough effect; inconclusive = small, poorly fitted or top-dose-only effect; inactive = no such curve, though single readings can be large or run the other way.

Assay: qHTS Screen for Compounds that Selectively Target Cancer Cells with p53 Mutations: Cytotoxicity of p53ts Cells at the Permissive Temperature;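 also: 0% = DMSO and -100% = full killing by reference compound; nearly all actives have a fitted effect of over 55% in size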
Conditions: H1299-p53A138V at 32C, ATP luminescence viability, 24 h; at 46.1 µM (top of the series) unless noted

| SMILES | activity change, negative = cytotoxicity |
| --- | --- |
| CN1CCC[C@H](OC(=O)C(c2ccccc2)c2ccccc2)C1 | inactive: -4.18% [at 9.22 µM] |
| C[C@@H](O)COc1ccc([As](=O)(O)O)cc1N | inactive: -4.84% [at 9.22 µM] |
| O=P(Nc1nccs1)(c1ccccc1)c1ccccc1 | inactive: 3.17% |
| c1nnnn1CCn1cnnn1 | inactive: -2.54% |
| O=C(OC1CN2CCC1CC2)c1cccc(Cl)c1 (centres undefined) | inactive: 2.01% |
| Cc1cc([N+](=O)[O-])cc([N+](=O)[O-])c1O | inactive: 4.69% [at 1.84 µM] |
| [N-]=[N+]=Nc1ccc([As](=O)(O)O)cc1 | inactive: -2.4% [at 9.22 µM] |
| COC(=O)c1cc2c(s1)N=C(c1ccccc1)N(C)P2(=O)N1CCOCC1 (centres undefined) | inactive: 8.63% |
| O=P1(Nc2nc3ccc(Cl)cc3s2)COc2ccccc2O1 (centres undefined) | inactive: -12.9% |
| NCC[C@@H](N)CSP(=O)(O)O | inactive: 0.851% [at 9.22 µM] |
| CN1CCCC(OC(=O)C(c2ccccc2)c2ccccc2)C1 (centres undefined) | inactive: 1.75% |
| O=[N+]([O-])c1ccc(C[As](=O)(O)O)cc1 | inactive: 0.0946% [at 9.22 µM] |
| [N-]=[N+]=NCC(O)CN=[N+]=[N-] (centres undefined) | inactive: 1.22% [at 9.22 µM] |
| C(Cc1nn[nH]n1)c1nn[nH]n1 | inactive: -1.85% [at 9.22 µM] |
| CN(C(=O)Cc1ccccc1)[C@@H]1CC[C@@]2(CCCO2)C[C@H]1N1CCCC1 | inactive: 2.99% |
| O=C(CO)Nc1ccc([As](=O)(O)O)cc1 | inactive: 3.2% [at 9.22 µM] |
| CCC(C)N(CC(C)C)C(=S)SC(NC(C)=O)C(Cl)(Cl)Cl (centres undefined) | inactive: -9.94% |
| COP1(=S)c2c(C)nn(CCC#N)c2N=C(c2ccc(F)cc2)N1C (centres undefined) | inactive: -1.62% |
| O=C(COc1ccccc1)OC1CN2CCC1CC2 (centres undefined) | inactive: 2.21% |
| O=C(O)[C@@H](O)c1ccc([As](=O)(O)O)cc1 | inactive: 4.96% [at 9.22 µM] |

| SMILES | activity change, negative = cytotoxicity |
| --- | --- |
| CN(N=O)C(=N)N[N+](=O)[O-] | inactive: -2.62% [at 1.84 µM] |
| O=[As]c1ccc(S(=O)(=O)NCCO)cc1 (centres undefined) | inactive: 3.8% [at 9.22 µM] |
| ClCCSc1nnc(-c2cccnc2)o1 | inactive: -17.6% |
| [N-]=[N+]=NCC(N)=O | inactive: 3.67% [at 9.22 µM] |
| Cc1c2c(nc3ccccc13)SC(C(Cl)Cl)C2 (centres undefined) | inactive: 23.1% |
| O=C(OC1CN2CCC1CC2)C12CC3CC(CC(C3)C1)C2 (centres undefined) | inactive: -6.36% |
| NC(=O)Nc1cc([As](=O)(O)O)cc(I)c1O | inactive: 3.15% [at 9.22 µM] |
| NS(=O)(=O)Cc1ccc([As](=O)(O)O)cc1 | inactive: -1.69% [at 9.22 µM] |
| O=C(CC(=O)c1ccccc1)O[C@H]1CN2CCC1CC2 | inactive: 2.24% [at 9.22 µM] |
| CN(C(=O)Cc1ccc(Cl)c(Cl)c1)[C@@H]1CC[C@@]2(CCCO2)C[C@H]1N1CCCC1 | inactive: -17.3% |
| CCOP1(=S)c2c(C)nn(CCC#N)c2N=C(c2ccc(F)cc2)N1C (centres undefined) | inactive: -6.29% |
| O=P(Nc1nccs1)(c1ccccc1)c1nc2ccccc2s1 (centres undefined) | inactive: -1.93% |
| O=[As](O)(O)c1ccc([As](=O)(O)O)cc1 | inactive: -2.98% [at 9.22 µM] |
| O=P1(Nc2ncccn2)COc2ccccc2OC1 | inactive: 2.6% |
| O=P1(Nc2ccc(Br)cn2)COc2ccccc2OC1 | inactive: -1.54% |
| Cc1nn(-c2ccccc2)c2c1P(=O)(N1CCOCC1)N(C)C(c1ccccc1)=N2 (centres undefined) | inactive: 1.64% |
| O=P1(Nc2ccccn2)COc2ccccc2OC1 | inactive: -3.34% |
| CN(CCCl)Cc1cc(Cl)c(NC2=NCCN2)c(Cl)c1 | inactive: -9.01% |
| Clc1n[nH]nc1-c1nn[nH][15n]1 | inactive: 13% |
